From patent US6541463B1, “Inhibitors of type 5 and type 3 17β-hydroxysteroid dehydrogenase and methods for their use” (Endorecherche, Inc., priority 1998, dated 2003)
Like-named read-outs stand apart in the source and are kept apart here. One block for each compound: values may come before it.

Chains of the proteins cited; added tags and fusions are not shown.
UniProt P42330, whole entry: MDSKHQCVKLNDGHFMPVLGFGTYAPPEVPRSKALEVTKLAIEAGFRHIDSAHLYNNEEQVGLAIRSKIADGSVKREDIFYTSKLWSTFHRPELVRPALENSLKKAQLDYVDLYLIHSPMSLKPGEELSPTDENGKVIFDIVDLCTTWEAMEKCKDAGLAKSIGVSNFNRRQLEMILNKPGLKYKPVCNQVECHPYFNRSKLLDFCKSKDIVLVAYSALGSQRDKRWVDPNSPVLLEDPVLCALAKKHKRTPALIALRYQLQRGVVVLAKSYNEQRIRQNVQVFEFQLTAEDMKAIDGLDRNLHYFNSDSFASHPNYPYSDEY
UniProt P37059, whole entry: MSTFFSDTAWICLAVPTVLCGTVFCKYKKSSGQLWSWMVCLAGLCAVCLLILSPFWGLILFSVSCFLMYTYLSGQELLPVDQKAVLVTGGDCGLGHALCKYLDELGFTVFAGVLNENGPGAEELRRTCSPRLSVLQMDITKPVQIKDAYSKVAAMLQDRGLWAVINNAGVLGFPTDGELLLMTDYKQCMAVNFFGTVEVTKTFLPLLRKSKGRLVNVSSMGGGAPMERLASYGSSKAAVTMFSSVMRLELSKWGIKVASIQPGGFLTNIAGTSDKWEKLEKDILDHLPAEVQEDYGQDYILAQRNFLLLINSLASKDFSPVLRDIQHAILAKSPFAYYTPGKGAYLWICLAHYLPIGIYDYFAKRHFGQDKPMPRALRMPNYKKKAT

What was measured:
[1] = target: human type 5 17β-hydroxysteroid dehydrogenase (Homo sapiens, UniProt P42330); experiment: Inhibition of human type 5 17β-HSD activity in transfected 293 cells; type: cell-based
[2] = tested on: Shionogi mouse mammary carcinoma cells; experiment: Androgenic activity: stimulation of proliferation of Shionogi cells
[3] = tested on: Shionogi mouse mammary carcinoma cells; experiment: Antiandrogenic activity: inhibition of DHT-induced proliferation of Shionogi cells; type: cell-based
[4] = tested on: ZR-75-1 cells; experiment: Estrogenic activity: stimulation of proliferation of ZR-75-1 cells; type: cell-based, human
[5] = tested on: ZR-75-1 cells; experiment: Antiestrogenic activity: inhibition of E2-induced proliferation of ZR-75-1 cells; design: ZR-75-1 Activity, E2 / ZR-75-1 Activity E2 E^−6: unit not given here
[6] = target: human type 2 17β-hydroxysteroid dehydrogenase (Homo sapiens, UniProt P37059); experiment: Enzymatic assay for type 2 17β-HSD; conditions: for Inhibition Type 2 17β-HSD Activity [% Inh.]: at 3.10^-8M; for Inhibition Type 2 17β-HSD Activity [% Inh. at 3.10^−5 M]: Table 5 column 5
[7] = read-out: Inhibition Type V 17B-HSD IC50
[8] = read-out: Antiandrogenic Activity Shionogi DHT [IC50 (nM)], with DHT, value in square brackets on second line
[9] = read-out: Inhibition Type V 17β-HSD IC50
[10] = read-out: Antiandrogenic Activity Shionogi, DHT [IC50], DHT
[11] = read-out: Inhibition Type V 17β-HSD IC50, Table 5 column 2

Structure (SMILES): CC(C)C[C@]1(C)CC2C3C=CC4=CC(=O)CC[C@]4(C)C3CC[C@]2(C)C1=O (stereo partly drawn)
IC50 [1, 7]: 20 nM
Androgenic Activity Shionogi Basal E^−6 ([2]; E^−6): −13
Androgenic Activity Shionogi Basal E^−7 ([2]; E^−7): 0
IC50 [3, 8]: 471 nM
Antiandrogenic Activity Shionogi DHT E^−6 ([3]; with DHT, E^−6): −85
Antiandrogenic Activity Shionogi DHT E^−7 ([3]; with DHT, E^−7): −36

Structure (SMILES): CC(=O)[C@@]1(OC(=O)CCCCCBr)CCC2C3C=C(C)C4=CC(=O)CC[C@]4(C)C3CC[C@@]21C (stereo partly drawn)
ZR-75-1 Activity, Basal ([4]; E^−6): −8
ZR-75-1 Activity, Basal ([4]; E^−8): 0
IC50 [1, 9]: 1.8 nM
Androgenic Activity Shionogi, Basal ([2]; E^−6): −32
Androgenic Activity Shionogi, Basal ([2]; E^−7): −11
Antiandrogenic Activity Shionogi, DHT ([3]; DHT, E^−6): −126
Antiandrogenic Activity Shionogi, DHT ([3]; DHT, E^−7): −78
IC50 [3, 10]: 158 nM
ZR-75-1 Activity, E2 ([5]; E2): −53
ZR-75-1 Activity, E2 ([5]; E2, E^−8): −35

Structure (SMILES): CC1(C)CC[C@@]2(CCC3C4CCc5cc(OS(=O)(=O)c6ccccc6)ccc5C4CC[C@@]32C)OC1=O (stereo partly drawn)
Inhibition Type 2 17β-HSD Activity [% Inh. at 3 · 10^−8M] ([6]; Table 4′, bracketed values, 3 · 10^−8M): [62] %
IC50 ([1]; read-out: Inhibition Type V 17β-HSD IC50, Table 4′): 54 nM
Antiandrogenic Activity Shionogi DHT E^−6 ([3]; Table 4′, DHT-induced proliferation, E^−6 (10^−6 M)): −67%
ZR-75-1 Activity E2 3E^−8 ([5]; Table 4′, E2-induced proliferation, 3E^−8): +19%

Structure (SMILES): CC(=O)O[C@]1(C(C)=O)CCC2C3C=C(C)C4=CC(=O)C[C@H](C)[C@]4(C)C3CC[C@@]21C (stereo partly drawn)
ZR-75-1 Activity, Basal ([4]; E^−6): 0
ZR-75-1 Activity, Basal ([4]; E^−8): 0
IC50 [1, 9]: 17.4 nM
Androgenic Activity Shionogi, Basal ([2]; E^−6): −4
Androgenic Activity Shionogi, Basal ([2]; E^−7): −19
Antiandrogenic Activity Shionogi, DHT ([3]; DHT, E^−6): −104
Antiandrogenic Activity Shionogi, DHT ([3]; DHT, E^−7): −88
IC50 [3, 10]: 41 nM
ZR-75-1 Activity, E2 ([5]; E2): −13
ZR-75-1 Activity, E2 ([5]; E2, E^−8): −17

Structure (SMILES): CCCC(=O)O[C@]1(C(=O)N(C)Cc2ccccc2)CCC2C3C=C(C)C4=CC(=O)CC[C@]4(C)C3CC[C@@]21C (stereo partly drawn)
Inhibition Type 2 17β-HSD Activity [% Inh.] [6]: [88] %
IC50 [1, 9]: 6.8 nM
Androgenic Activity Shionogi, Basal ([2]; E^−6): −62
Androgenic Activity Shionogi, Basal ([2]; E^−7): −32
Antiandrogenic Activity Shionogi, DHT ([3]; DHT, E^−6): −121
Antiandrogenic Activity Shionogi, DHT ([3]; DHT, E^−7): −66

Structure (SMILES): CCCCCC(=O)O[C@]1(C(C)=O)CCC2C3C=C(C)C4=CC(=O)C[C@H](C)[C@]4(C)C3CC[C@@]21C (stereo partly drawn)
ZR-75-1 Activity, Basal ([4]; E^−6): −9
ZR-75-1 Activity, Basal ([4]; E^−8): −29
IC50 [1, 9]: 21.3 nM
Androgenic Activity Shionogi, Basal ([2]; E^−6): −21
Androgenic Activity Shionogi, Basal ([2]; E^−7): −4
Antiandrogenic Activity Shionogi, DHT ([3]; DHT, E^−6): −121
Antiandrogenic Activity Shionogi, DHT ([3]; DHT, E^−7): −51
ZR-75-1 Activity, E2 ([5]; E2): −19
ZR-75-1 Activity, E2 ([5]; E2, E^−8): −12

Inhibition Type 2 17β-HSD Activity [% Inh. at 3.10^−5 M] ([6]; bracketed values): [70] %
IC50 [1, 11]: 31.4 nM
Structure (SMILES): C[C@]12CCC(=O)NC1CCC1C2CC[C@@]2(C)C1CC[C@@]21CCCC(=O)O1 (stereo partly drawn)
ZR-75-1 Activity Basal E^−6 ([4]; Table 5 column 11, E^−6): 0 0%
ZR-75-1 Activity Basal E^−8 ([4]; Table 5 column 11, E^−8): 0 0%

Structure (SMILES): CCC[C@]1(C)CC2C3C=CC4=CC(=O)CC[C@]4(C)C3CC[C@]2(C)C1=O (stereo partly drawn)
ZR-75-1 Activity Basal E^−6 ([4]; E^−6): 10
ZR-75-1 Activity Basal E^−8 ([4]; E^−8): 0
IC50 [1, 7]: 35 nM
Androgenic Activity Shionogi Basal E^−6 ([2]; E^−6): −22
Androgenic Activity Shionogi Basal E^−7 ([2]; E^−7): 0
Antiandrogenic Activity Shionogi DHT E^−6 ([3]; with DHT, E^−6): −85
Antiandrogenic Activity Shionogi DHT E^−7 ([3]; with DHT, E^−7): −14
ZR-75-1 Activity E2 3E^−8 ([5]; with E2, 3E^−8): −12

Structure (SMILES): CC(=O)[C@@]1(OC(=O)CCCCl)CCC2C3C=C(C)C4=CC(=O)CC[C@]4(C)C3CC[C@@]21C (stereo partly drawn)
IC50 [1, 9]: 4.1 nM
Androgenic Activity Shionogi, Basal ([2]; E^−6): 23
Androgenic Activity Shionogi, Basal ([2]; E^−7): 5
Antiandrogenic Activity Shionogi, DHT ([3]; DHT, E^−6): −93
Antiandrogenic Activity Shionogi, DHT ([3]; DHT, E^−7): −91
IC50 [3, 10]: 10 nM

Structure (SMILES): CC(=O)[C@@]1(OC(=O)Cc2ccc(OC(=O)C(C)(C)C)cc2)CCC2C3C=C(C)C4=CC(=O)CC[C@]4(C)C3CC[C@@]21C (stereo partly drawn)
Inhibition Type 2 17β-HSD Activity [% Inh.] [6]: [64] %
IC50 [1, 9]: 17 nM
Androgenic Activity Shionogi, Basal ([2]; E^−6): −6
Androgenic Activity Shionogi, Basal ([2]; E^−7): −9
Antiandrogenic Activity Shionogi, DHT ([3]; DHT, E^−6): −34
Antiandrogenic Activity Shionogi, DHT ([3]; DHT, E^−7): 3

Structure (SMILES): CC(=O)O[C@]1(C(=O)N(C)c2ccccc2)CCC2C3C=C(C)C4=CC(=O)CC[C@]4(C)C3CC[C@@]21C (stereo partly drawn)
IC50 [1, 9]: 25 nM
Androgenic Activity Shionogi, Basal ([2]; E^−6): 0
Androgenic Activity Shionogi, Basal ([2]; E^−7): 0
Antiandrogenic Activity Shionogi, DHT ([3]; DHT, E^−6): −82
Antiandrogenic Activity Shionogi, DHT ([3]; DHT, E^−7): −16

Inhibition Type 2 17β-HSD Activity [% Inh. at 3.10^−5 M] ([6]; bracketed values): [43] %
IC50 [1, 11]: 29 nM
Structure (SMILES): CC1(C)CC[C@@]2(CCC3C4CCC5NC(=O)CC[C@]5(C)C4CC[C@@]32C)OC1=O (stereo partly drawn)

Structure (SMILES): CC1=CC2C(CC[C@@]3(C)C2CCC(=O)[C@@]3(C)OC(=O)Cc2ccc(OC(=O)C(C)(C)C)cc2)[C@@]2(C)CCC(=O)C=C12 (stereo partly drawn)
IC50 [1, 7]: 29.7 nM
Androgenic Activity Shionogi Basal E^−6 ([2]; E^−6): −11
Androgenic Activity Shionogi Basal E^−7 ([2]; E^−7): 13
Antiandrogenic Activity Shionogi DHT E^−6 ([3]; with DHT, E^−6): −19
Antiandrogenic Activity Shionogi DHT E^−7 ([3]; with DHT, E^−7): 9

Structure (SMILES): CC1=CC2C(CC[C@@]3(C)C2CCC(=O)[C@@]3(C)OC(=O)C(C)C)[C@]2(C)C1=CC(=O)C[C@@H]2C (stereo partly drawn)
IC50 [1, 7]: 38.6 nM
Androgenic Activity Shionogi Basal E^−6 ([2]; E^−6): −17
Androgenic Activity Shionogi Basal E^−7 ([2]; E^−7): −13
IC50 [3, 8]: 300 nM
Antiandrogenic Activity Shionogi DHT E^−6 ([3]; with DHT, E^−6): −95
Antiandrogenic Activity Shionogi DHT E^−7 ([3]; with DHT, E^−7): −19
